This is a selection; strong and weak results do not stand in their true shares. Potency and affinity values are given separately. Active and inactive are the calls of the source. How the calls were made is not given here.
biological target: Heat shock cognate 71 kDa protein (Homo sapiens) (UniProt P11142); assay: small molecules displacing fluorescent ligand from Hsc70 – biochemical, fluorescence polarization, primary screen (AID 568); conditions: mP, at 20 µM, stronger effect = higher value

Amino acid sequences for entries named in this document (tags omitted).
UniProt P11142, whole entry, looked up: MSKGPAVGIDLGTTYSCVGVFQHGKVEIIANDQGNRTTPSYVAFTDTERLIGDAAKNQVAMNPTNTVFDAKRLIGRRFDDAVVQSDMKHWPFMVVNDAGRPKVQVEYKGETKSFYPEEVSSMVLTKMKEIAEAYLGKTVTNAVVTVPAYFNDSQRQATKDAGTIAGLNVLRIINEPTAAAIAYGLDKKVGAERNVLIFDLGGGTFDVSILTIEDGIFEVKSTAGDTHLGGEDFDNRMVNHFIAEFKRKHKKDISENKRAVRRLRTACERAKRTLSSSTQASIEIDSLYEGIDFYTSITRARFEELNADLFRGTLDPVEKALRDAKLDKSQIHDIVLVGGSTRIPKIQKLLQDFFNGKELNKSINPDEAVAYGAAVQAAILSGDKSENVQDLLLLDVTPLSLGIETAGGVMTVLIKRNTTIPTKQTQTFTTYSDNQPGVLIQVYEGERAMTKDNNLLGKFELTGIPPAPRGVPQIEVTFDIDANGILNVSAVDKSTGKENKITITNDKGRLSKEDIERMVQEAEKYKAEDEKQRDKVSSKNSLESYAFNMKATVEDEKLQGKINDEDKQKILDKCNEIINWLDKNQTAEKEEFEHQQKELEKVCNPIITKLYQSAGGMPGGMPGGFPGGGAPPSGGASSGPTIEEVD

Structure (SMILES)	displacement
CCc1nc2c(n1)c1c(non1O)c1c2no[n+]1[O-]	inactive: -5%
O=[N+]([O-])c1cccc2n[nH]nc12	inactive: -0.3%
CC1CCN(C(=O)Oc2c(Cl)cc(Cl)c3cccnc23)CC1	inactive: -0.1%
Cc1c2non([O-])c-2c(C)[n+](=O)[n+]1[O-]	inactive: 2%
Oc1ccccc1CNc1ccccn1	inactive: 1.9%
CCOP(=O)(Nc1ccccc1)OCC	inactive: 2.7%
COC(=O)c1cc2c(s1)N=C(c1ccccc1)N(C)P2(=O)N1CCOCC1 (configuration not stated)	inactive: 2.4%
O=P1(Nc2nc3ccc(Cl)cc3s2)COc2ccccc2O1 (configuration not stated)	inactive: -4.8%
O=P(Nc1nccs1)(c1ccccc1)c1ccccc1	inactive: 6.9%
c1nnnn1CCn1cnnn1	inactive: -5.2%
O=C(OC1CN2CCC1CC2)c1cccc(Cl)c1 (configuration not stated)	inactive: 3.9%
Cc1nn(-c2ccccc2)c2c1P(=O)(N1CCOCC1)N(C)C(c1ccccc1)=N2 (configuration not stated)	inactive: 0.7%
O=P1(Nc2ncccn2)COc2ccccc2OC1	inactive: 2.4%
O=P1(Nc2ccc(Br)cn2)COc2ccccc2OC1	inactive: -0.7%
Cc1ccc(OCC(=O)OC2CN3CCC2CC3)cc1 (configuration not stated)	inactive: 0.9%
O=P1(Nc2ccccn2)COc2ccccc2OC1	inactive: 1.2%
Clc1n[nH]nc1-c1nn[nH][15n]1	inactive: 6.6%
CC1(CBr)Cn2c(nc3ccccc3c2=O)S1 (configuration not stated)	inactive: -0.3%
Cc1cccc(OCC(=O)OC2CN3CCC2CC3)c1 (configuration not stated)	inactive: -2%
O=P(Nc1nccs1)(c1ccccc1)c1nc2ccccc2s1 (configuration not stated)	inactive: -1.1%
CCOP1(=S)c2c(C)nn(CCC#N)c2N=C(c2ccccc2F)N1C (configuration not stated)	inactive: 0.7%
CCOP1(=S)c2c(C)nn(CCC#N)c2N=C(c2ccc(F)cc2)N1C (configuration not stated)	inactive: -0.3%
ClCCSc1nnc(-c2cccnc2)o1	inactive: -1.1%
O=C(OC1CN2CCC1CC2)C12CC3CC(CC(C3)C1)C2 (configuration not stated)	inactive: -5.3%
COP1(=S)c2c(C)nn(CCC#N)c2N=C(c2ccc(F)cc2)N1C (configuration not stated)	inactive: 3.7%
O=C(COc1ccccc1)OC1CN2CCC1CC2 (configuration not stated)	inactive: 2.6%
CCC(C)N(CC(C)C)C(=S)SC(NC(C)=O)C(Cl)(Cl)Cl (configuration not stated)	inactive: -1.8%

Reference: PubChem BioAssay AID568 (Sanford-Burnham Center for Chemical Genomics, 2006)
